These are literature values, as cited in PubChem BioAssay AID1811 (Shanghai Institute of Organic Chemistry, 2009).

The structures appear in SMILES notation. Some of the results follow. The source made the active and inactive calls. Unless stated, no cut-off for active and inactive is given here.

The test system of this data set is epsin. Kind of data set: PubChem AID 1811. The following applies: PDB complex binding affinities from literature.

With `O=P(O)(O)O[C@@H]1[C@H](O)[C@H](O)[C@@H](OP(=O)(O)O)[C@H](OP(=O)(O)O)[C@H]1O`, the result was active.
